The IC50 is the point on the concentration scale where inhibition reaches its midpoint. The low end stands for inhibition by little substance, the high end for a need for much substance.

The chains behind the UniProt entries cited, without tags or fusion partners.
UniProt P27487, whole entry, looked up: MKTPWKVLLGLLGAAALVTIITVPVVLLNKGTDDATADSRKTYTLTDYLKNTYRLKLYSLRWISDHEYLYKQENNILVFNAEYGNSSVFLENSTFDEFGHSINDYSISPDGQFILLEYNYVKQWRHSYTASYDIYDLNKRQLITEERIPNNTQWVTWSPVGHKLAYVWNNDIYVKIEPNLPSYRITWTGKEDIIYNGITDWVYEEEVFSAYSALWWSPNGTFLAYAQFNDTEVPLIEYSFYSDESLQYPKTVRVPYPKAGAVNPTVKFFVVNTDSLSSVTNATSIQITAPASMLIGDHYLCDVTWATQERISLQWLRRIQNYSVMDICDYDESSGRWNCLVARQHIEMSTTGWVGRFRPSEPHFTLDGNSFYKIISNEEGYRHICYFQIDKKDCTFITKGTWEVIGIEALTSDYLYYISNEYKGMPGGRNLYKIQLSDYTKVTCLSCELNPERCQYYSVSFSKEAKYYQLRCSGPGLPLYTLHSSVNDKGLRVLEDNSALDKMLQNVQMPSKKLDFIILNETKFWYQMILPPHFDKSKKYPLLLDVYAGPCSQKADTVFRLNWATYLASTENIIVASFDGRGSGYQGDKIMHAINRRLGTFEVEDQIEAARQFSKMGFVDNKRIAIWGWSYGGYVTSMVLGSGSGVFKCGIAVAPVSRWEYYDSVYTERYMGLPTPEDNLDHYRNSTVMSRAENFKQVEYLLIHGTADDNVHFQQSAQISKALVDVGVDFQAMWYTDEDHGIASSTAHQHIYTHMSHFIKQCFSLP

Experiment [1] has as its target T1, Dipeptidyl peptidase 4 (Homo sapiens, UniProt P27487). Put plainly: Inhibition of DPP4 (unknown origin) using Gly-Pro-7-amido-4-methylcoumarin as substrate incubated for 30 mins by fluorescence analysis.
Experiment [2] has as its target T1, Dipeptidyl peptidase 4. Put plainly: Inhibition of DPP4 (unknown origin).

`CC#CCN1C(N2CCC[C@@H](N)C2)=NC2C1C(=O)N(Cc1cccnc1C#N)C(=O)N2Cc1cccnc1C#N` (some centres not stated) returned a half-inhibitory concentration (IC50) against Dipeptidyl peptidase 4 [1] of 0.09 nM.
In the case of `CC#CCN1C(N2CCC[C@@H](NC(=O)OC(C)(C)C)C2)=NC2N=C3N(C)C(=O)CN3C(=O)C21` (some centres not stated), on Dipeptidyl peptidase 4 [2], the IC50 came to 1.7 nM.

(Values after ChEMBL document CHEMBL5244211, “Current anti-diabetic agents and their molecular targets: A review” (Eur J Med Chem, 2018).)
